Screens (PubChem BioAssay)
E-selectin induc: E-selectin induction in HUVECs, primary screen, imaging, HUVEC, immunofluorescence imaging, single point | AID 686992, 2013 | normalized: neutral wells 0, TNF-alpha wells 100 | 260,000 compounds, 0.37% hits | activation, % at 7.58 µM;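 active = mean E-selectin-positive cell signal at least 10% of the positive control, reached in at least 60% of replicates, without over 20% cell loss; inconclusive = no rule given, readout overlaps actives, possibly toxicity-flagged; inactive = the rest, including those meeting only one limit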
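Material: HUVEC primary endothelial cells; Amount: 3,000 cells per well; Dosing: single concentration; Medium: EGM-2 growth medium on 0.1% gelatin-coated wells; Read-out basis: percent E-selectin-positive cells; Signal: immunofluorescence imaging; Control set: TNF-alpha, DMSO.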
AF4-AF9 inh: inhibitors of AF4 peptide binding to AF9, primary screen, biochemical, AlphaScreen, biotin-AF4 peptide, FLAG-AF9, single point; Protein AF-9 (Homo sapiens), P42568; inhibition, % at 10 µM; 350,000 compounds, 0.47% hits; AID 651704, 2012;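 active = every replicate reaching a set inhibition limit, whatever the replicate mean, cut at about 25% in these data; inconclusive = mean inhibition reaches that limit but some replicates miss it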;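 note: 0% = plate neutral control median and 100% = total signal loss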
Yeast UUG start: alters start codon recognition fidelity in yeast | S. cerevisiae UUG-firefly luciferase reporter, luminescence/redox ratio | activity score, % at 18.7 µM | 350,000 compounds, 0.13% hits | AID 602363;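 active = replicate mean at a twofold rise or more, about +100% in these data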;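 note: firefly luciferase made from a UUG start codon reports start codon fidelity; reporter light over untreated wells divided by growth signal over untreated wells; some hits fall short of that in this replicate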
ERAP1 HTS inh: human ERAP1 aminopeptidase inhibitors, primary screen, biochemical, single point, plate reader; inhibition, % at 10.7 µM; 340,000 compounds, 0.15% hits; recombinant ERAP1, Leu-AMC fluorescence, 60 min; Endoplasmic reticulum aminopeptidase 1 (Homo sapiens), Q9NZ08;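 active = mean replicate inhibition of at least 30%, or all replicates individually reaching that 30% level; inactive = mean below 30% and not every replicate reaching it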;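 note: 0% = neutral control wells and 100% = L-leucinethiol positive control wells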
ARNT-TACC3 inh: disruptors of ARNT/TACC3 protein interaction, primary screen, biochemical, AlphaScreen, single concentration. Transforming acidic coiled-coil-containing protein 3 (Homo sapiens), Q9Y6A5. AlphaScreen His-ARNT PAS-B/GST-TACC3 binding, luminescence; TACC3 fragment carries E629A point mutation. inhibition, % at 9.99 µM. 390,000 compounds, 0.66% hits;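 active = mean inhibition of replicates at least 50% and at least half of replicates each reaching 50%; inconclusive = half or more replicates reach 50% but mean below 50%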;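 note: 0% = complete ARNT plus TACC3 wells and 100% = ARNT alone without TACC3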
S100A4 inh HTS: inhibitors of S100A4-myosin IIA peptide binding, primary screen, biochemical, fluorescence polarization, TAMRA-MyoIIA peptide; inhibition, % at 10.7 µM; Protein S100-A4 (Homo sapiens), P26447; AID 652163, 2013; 360,000 compounds, 0.14% hits;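 active = mean inhibition of at least 70% across replicates, with every replicate also reaching that level; inconclusive = mean inhibition reaches 70% but some replicates fall short; inactive = mean inhibition below 70%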
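Assay system: human S100A4 monomer with TAMRA-labelled myosin IIA peptide / Buffer or medium: Calcium-containing HEPES buffer, pH 7.2 / Reagent: TAMRA-labelled myosin IIA heavy-chain peptide probe, 5 nM / Compound: one dose per compound / Timing: polarization read 5 min after assay mix addition, stable 5–60 min / Benchmarks: neutral control DMSO, positive control TFP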
* marks the source's active call; other numbers are inactive results; u = inconclusive; x = no result given. Hits are enriched below; roughly 1.3% of the tested compounds scored in any of these assays.

Amino acid sequences for entries named in this document (tags omitted).
Protein AF-9 (Homo sapiens), P42568, UniProt P42568, whole entry, looked up: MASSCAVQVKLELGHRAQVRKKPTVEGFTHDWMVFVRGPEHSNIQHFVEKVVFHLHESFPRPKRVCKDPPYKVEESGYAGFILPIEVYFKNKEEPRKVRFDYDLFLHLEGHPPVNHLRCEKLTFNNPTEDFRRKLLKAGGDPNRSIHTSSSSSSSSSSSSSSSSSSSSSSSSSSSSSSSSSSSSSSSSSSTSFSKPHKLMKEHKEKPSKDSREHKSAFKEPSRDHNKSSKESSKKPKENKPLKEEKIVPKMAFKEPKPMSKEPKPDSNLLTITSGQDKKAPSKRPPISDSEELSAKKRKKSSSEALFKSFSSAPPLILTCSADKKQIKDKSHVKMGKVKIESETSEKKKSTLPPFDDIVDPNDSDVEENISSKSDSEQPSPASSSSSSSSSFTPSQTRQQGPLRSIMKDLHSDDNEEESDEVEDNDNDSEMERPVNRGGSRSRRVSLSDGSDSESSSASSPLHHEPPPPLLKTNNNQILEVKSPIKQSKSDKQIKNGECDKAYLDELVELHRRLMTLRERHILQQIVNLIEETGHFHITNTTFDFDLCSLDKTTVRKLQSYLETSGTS

The opening two records, ahead of the listing:
SMILES	E-selectin induc	AF4-AF9 inh	Yeast UUG start	ERAP1 HTS inh	ARNT-TACC3 inh	S100A4 inh HTS
N#Cc1cccc(-c2ccc3c(c2)[C@@H]2[C@@H](CCN2C(=O)c2ccncc2)[C@@H](CO)N3)c1	1	-4	-10	1	10	98*
N#Cc1cccc(-c2ccc3c(c2)[C@H]2[C@H](CCN2Cc2ccncc2)[C@H](CO)N3)c1	0	-2	-12	3	14*	5

The listing, previewed entries included:
SMILES	E-selectin induc	AF4-AF9 inh	Yeast UUG start	ERAP1 HTS inh	ARNT-TACC3 inh	S100A4 inh HTS
N#Cc1cccc(-c2ccc3c(c2)[C@@H]2[C@@H](CCN2C(=O)c2ccncc2)[C@@H](CO)N3)c1	1	-4	-10	1	10	98*
N#Cc1cccc(-c2ccc3c(c2)[C@H]2[C@H](CCN2Cc2ccncc2)[C@H](CO)N3)c1	0	-2	-12	3	14*	5
N#Cc1cccc(-c2ccc3c(c2)[C@@H]2[C@@H](CCN2Cc2ccncc2)[C@@H](CO)N3)c1	22	6	-7	2	25*	7
OC[C@@H]1Nc2ccc(C3=CCCCC3)cc2[C@@H]2[C@H]1CCN2Cc1nccs1	1	25*	x	-2	x	0
N#Cc1cccc(-c2ccc3c(c2)[C@H]2[C@H](CCN2Cc2cncnc2)[C@@H](CO)N3)c1	1	x	-9	x	0	x
N#Cc1ccc(-c2ccc3c(c2)[C@@H]2[C@@H](CCN2C(=O)c2ccncc2)[C@H](CO)N3)cc1	1	2	-5	-3	-6	10
CCCC(=O)Nc1ccc2c(c1)C(=O)N(C)C[C@H](OC)[C@H](C)CN(C(=O)c1cnccn1)[C@H](C)CO2	0	3	3	0	0	-5
COc1ccc(CN(C)C[C@H]2OCCCC[C@@H](C)Oc3ccc(NC(=O)Nc4cccc5ccccc45)cc3C(=O)N([C@@H](C)CO)C[C@@H]2C)cc1	0	8	32	-1	22	17
O=C(NC1CCCC1)C(c1ccc(F)cc1)N(C(=O)c1csnn1)c1ccccc1F (stereo not drawn)	x	1	-16	0	-12	-5
O=C(NC1CCCC1)C(c1ccc(F)cc1)N(C(=O)c1csnn1)c1ccccc1 (stereo not drawn)	36*	-1	-13	-3	3	-9
COc1ccc2c3c(n(C)c2c1)[C@@H](CO)N(CC1CC1)CC31CN(S(=O)(=O)c2cccs2)C1	0	10	x	0	x	-2
CCc1nc(Sc2nnnn2-c2ccccc2)c2c3c(sc2n1)CCCC3	x	47*	x	1	-5	-5
Cc1nc(Sc2nnnn2C)c2c3c(sc2n1)CCC3	x	x	-12	x	-1	x
CN(C)c1ccc(C=C2C(=O)OC(C)(C(C)(C)C)OC2=O)cc1 (stereo not drawn)	x	x	1	x	active	x
CN(C)c1ccc(C=C2C(=O)OC(C)(C)OC2=O)cc1	x	1	x	-3	-13	-128

Arranged by value in ARNT-TACC3 inh (lowest first): 5 of the compounds above
Molecule,AF4-AF9 inh,Yeast UUG start,ERAP1 HTS inh,ARNT-TACC3 inh,S100A4 inh HTS
O=C(NC1CCCC1)C(c1ccc(F)cc1)N(C(=O)c1csnn1)c1ccccc1F (stereo not drawn),1,-16,0,-12,-5
N#Cc1ccc(-c2ccc3c(c2)[C@@H]2[C@@H](CCN2C(=O)c2ccncc2)[C@H](CO)N3)cc1,2,-5,-3,-6,10
CCc1nc(Sc2nnnn2-c2ccccc2)c2c3c(sc2n1)CCCC3,47*,x,1,-5,-5
CCCC(=O)Nc1ccc2c(c1)C(=O)N(C)C[C@H](OC)[C@H](C)CN(C(=O)c1cnccn1)[C@H](C)CO2,3,3,0,0,-5
COc1ccc(CN(C)C[C@H]2OCCCC[C@@H](C)Oc3ccc(NC(=O)Nc4cccc5ccccc45)cc3C(=O)N([C@@H](C)CO)C[C@@H]2C)cc1,8,32,-1,22,17

Additional entries.
SMILES	E-selectin induc	AF4-AF9 inh	Yeast UUG start	ERAP1 HTS inh	ARNT-TACC3 inh	S100A4 inh HTS
C[C@H]1CN([C@@H](C)CO)C(=O)c2cccc(NS(=O)(=O)c3ccc(F)cc3)c2O[C@H]1CN(C)S(=O)(=O)c1cccs1	235*	3	19	-2	-1	-7
C[C@H]1CN([C@@H](C)CO)C(=O)c2cccc(NS(C)(=O)=O)c2O[C@@H]1CN(C)Cc1ccncc1	204*	-3	11	-3	16	60
C[C@@H]1CN([C@@H](C)CO)C(=O)c2cccc(NS(=O)(=O)c3ccc(F)cc3)c2O[C@H]1CN(C)Cc1ccc(C(=O)O)cc1	66*	-3	5	2	-5	0
C[C@@H]1CN([C@@H](C)CO)C(=O)c2cccc(NS(C)(=O)=O)c2O[C@@H]1CN(C)Cc1ccncc1	-3	-4	-5	0	9	10
C[C@@H]1CN([C@H](C)CO)C(=O)c2cccc(NS(C)(=O)=O)c2O[C@@H]1CN(C)Cc1ccncc1	262*	1	-9	-3	2	24
C[C@H](CO)N1C[C@H](C)[C@H](CN(C)Cc2ccc(C(=O)O)cc2)Oc2c(NS(=O)(=O)c3ccc(F)cc3)cccc2C1=O	1	-1	7	1	-11	-2
C[C@H]1CN([C@@H](C)CO)C(=O)c2cccc(NS(C)(=O)=O)c2O[C@H]1CN(C)Cc1ccncc1	-7	2	-15	-2	-11	8
Cc1ccc(S(=O)(=O)N(C)C[C@H]2Oc3cc(C#Cc4ccncc4)ccc3S(=O)(=O)N([C@@H](C)CO)C[C@H]2C)cc1	x	1	x	0	1	-28
C[C@H](CO)N1C[C@H](C)[C@@H](CN(C)S(=O)(=O)c2cn(C)cn2)Oc2ccc(NC(=O)NC3CCCCC3)cc2CC1=O	-5	-9	-1	-2	-5	-4
Cc1noc(C)c1NC(=O)N(C)C[C@@H]1Oc2ccc(NC(=O)Nc3cccc4ccccc34)cc2CC(=O)N([C@H](C)CO)C[C@@H]1C	0	-1	13	0	x	-6
CN(C)CCCNC(=O)C[C@@H]1CC[C@H](NC(=O)Cc2cccnc2)[C@H](CO)O1	0	0	-32	1	2	-6
C[C@H]1CN([C@@H](C)CO)C(=O)c2cccc(NS(C)(=O)=O)c2O[C@@H]1CN(C)Cc1ccc(Oc2ccccc2)cc1	32*	1	-2	3	13	8
Cc1noc(C)c1NC(=O)Nc1cccc2c1O[C@H](CN(C)S(=O)(=O)c1ccc(Cl)cc1)[C@H](C)CN([C@H](C)CO)C2=O	0	0	13	6	-1	0
Cc1cccc2c1CC(C)(C)N=C2C1=C(O)CCCC1=O	x	x	0	x	-30	x
CC1=NC(C)(C)Cc2c(C)cccc21	72*	2	-8	1	13	2
C[C@@H]1CCCCO[C@H](CN(C)Cc2ccccc2)[C@H](C)CN([C@H](C)CO)C(=O)c2cc(NS(=O)(=O)c3cn(C)cn3)ccc2O1	0	-7	9	7	-12	-33
O=C(COc1ccc(F)cc1)N/N=C/c1cccc2cccnc12	0	-7	8	1	95*	1
Cc1ccc(OCC(=O)N/N=C/c2cccc3cccnc23)cc1	x	-17	-22	-4	64*	-4
O=C(COc1cccc2cccnc12)N/N=C/c1ccccc1O	x	u	x	-6	7	1
CC(C)(C)OC(=O)N1CCC[C@H]1C(=O)N/N=C/c1cccc2cccnc12	0	x	x	1	91*	-4
Cc1ccccc1OCC(=O)N/N=C/c1cccc2cccnc12	-1	2	-20	1	65*	-3
O=C(COc1cccc2cccnc12)N/N=C/c1cccn1-c1ccc(F)cc1	0	22	x	2	13	-6
CC(C)(C)OC(=O)NCCC(=O)N/N=C/c1cccc2cccnc12	0	x	12	-7	69*	32
